Test results published in US11732008B2, “Preparation of functional homocysteine residues in polypeptides and peptides” (The Regents of the University of California, priority 2016, dated 2023).

Key:
[1] = Cloud point temperature (Tcp) by transmittance while heating; assay type: physicochemical; conditions: for Tcp (° C.): polymer 3.0 mg/mL in H2O, heated 1° C./min, temperature of 50% transmittance at 500 nm, —a = no Tcp detected, fully soluble 20 to 80° C., NA^b = insoluble in H2O down to 5° C.
Description: (§1) FIGS. 7A and 7B show CD Spectra and heating curves of exemplary OEG-Hcy derivatives.
The incorporation of precise side-chain structural modifications, enabled systematic study of the effects of different functionalities on the properties of the materials. […] Cloud point temperatures (Tcp) were determined at 50% transmittance by monitoring solution transmittance as a function of temperature, and were used to approximate the equilibrium LCST values. Since chain length variation and polymer concentration are well known to affect Tcp values, all samples were identical in length, being prepared from the same stock of M60 (SEQ ID NO: 1).

[2] = Chain conformation / helicity by circular dichroism (CD) spectroscopy; assay type: physicochemical; conditions: for chain conformation / α-helical (%): CD in water, 0.5 mg/mL, 20° C.
Excerpt: A) Scheme for complete conversion of helical, water-insoluble M60 (SEQ ID NO: 1) to disordered, water soluble 31a (M^EG360 (SEQ ID NO: 1)), then to helical, water soluble 31 (EG3-C^H60 (SEQ ID NO: 2)) via M alkylation followed by demethylation. B) CD spectra of M60 (SEQ ID NO: 1), 31a and 31 in either THF (M60 (SEQ ID NO: 1)) or DI water (31a & 31). For M60 (SEQ ID NO: 1), no data are presented below 204 nm due to solvent absorption that prohibits data collection. 31 found to be 85% α-helical. All CD spectra recorded at 0.5 mg/ml, 20° C. Figure discloses “C^H60” as SEQ ID NO: 2.
as §1
Heating or cooling rate: 1° C./min, transmittance recorded at 500 nm. B) CD spectra for 2e (0.5 mg/mL) in H2O for a sample incrementally heated from 20° C. to 45° C. and returned back to 20° C. (label: 20° C.*).
All data were recorded in H2O at 0.5 mg/mL, 20° C. For 5b no data were recorded below 198 nm due to sulfoxide absorption.

| Substance | Tcp (° C.) [1] | Tcp / LCST in water, present or not [1] | chain conformation [2] | further results |
| --- | --- | --- | --- | --- |
| Poly[(S-(2-hydroxy-4,7,10-trioxaundecyl)-L-homocysteine)0.5-stat-(S-(2-hydroxy-4,7,10-trioxadodecyl)-L-homocystein)0.5] [Sample 4b] | 40 °C |  |  |  |
| Poly(S-(3-(2-methoxyethoxy)-2-hydroxypropyl)-L-homocysteine) [Sample 2b] | 33 °C | shows a Tcp in water | α-helical conformation | α-helical (%) [2]: 84% |
| Poly(S-(3-(2-methoxyethoxy)-2-hydroxypropyl)-DL-homocysteine) [rac-2b] |  | do not have LCSTs |  |  |
| Poly(S-(2-hydroxy-4,7,10-trioxadodecyl)-L-homocysteine) [Sample 2e] | 28 °C |  |  | chain conformation above Tcp ([2]; CD in H2O, heated above Tcp (2e: 0.5 mg/mL, 20° C. to 45° C.)): remained helical |
| Poly(S-(2-hydroxy-4,7,10,13-tetraoxatetradecyl)-L-methionine sulfonium chloride) [Sample 31a] |  |  | disordered | water solubility (in words) (Solubility in water): water soluble |
| Poly(S-(2-hydroxy-4,7,10,13-tetraoxatetradecyl)-L-homocysteine) [Sample 2f] | 76 °C |  | helical | increase in Tcp over the other samples (3a, 3b) ([1]; hydroxyl linker group versus acetate and carbonate): ca. 36 °C; α-helical (%) [2]: 85%; water solubility (in words) (Solubility in water): water soluble |
| Poly(S-(2-hydroxy-4,7,10-trioxaundecyl)-L-homocysteine) [Sample 2d] | 53 °C |  |  |  |
| Poly(S-(3-(2-hydroxyethoxy)-2-hydroxypropyl)-L-homocysteine) [Sample 2a] |  | no LCST |  |  |
